The values below come from US10647965B2, “Hetero-transglycosylase and uses thereof” (BASF SE, priority 2013, dated 2020).

For this data set, the system named is OC[C@@H](O)[C@@H](O[C@@H]1O[C@H](CO[C@H]2OC[C@@H](O)[C@H](O)[C@H]2O)[C@@H](O[C@@H]2O[C@H](CO[C@H]3OC[C@@H](O)[C@H](O)[C@H]3O)[C@@H](O[C@@H]3O[C@H](CO[C@H]4OC[C@@H](O)[C@H](O)[C@H]4O)[C@@H](O)[C@H](O)[C@H]3O)[C@H](O)[C@H]2O)[C@H](O)[C@H]1O)[C@H](O)[C@@H](O)CO. Description: purified protein, by the assay type. Conditions: pH 6.0.

In the case of “Equisetum fluviatile HTG (hetero-transglycosylase), recombinant, amino acids 22 to 280 of SEQ ID NO: 2, expressed in Pichia pastoris as fusion protein SEQ ID NO: 4 (α-factor signal sequence, c-myc epitope, polyhistidine tag) (Equisetum fluviatile)”, the Km is 0.52 ± 0.06 µM (other: mixed-linkage glucan as donor-substrate) and 3.4 ± 0.4 µM (other: xyloglucan as donor-substrate).

As usually defined, the Km is the substrate concentration at which the rate is half of its maximum.
